From PubChem BioAssay AID1984 (Sanford-Burnham Center for Chemical Genomics, 2009) come the findings set out here.

Amino acid sequences for entries named in this document (tags omitted). Residues count along the entry.
UniProt Q05BA5, 1-1403: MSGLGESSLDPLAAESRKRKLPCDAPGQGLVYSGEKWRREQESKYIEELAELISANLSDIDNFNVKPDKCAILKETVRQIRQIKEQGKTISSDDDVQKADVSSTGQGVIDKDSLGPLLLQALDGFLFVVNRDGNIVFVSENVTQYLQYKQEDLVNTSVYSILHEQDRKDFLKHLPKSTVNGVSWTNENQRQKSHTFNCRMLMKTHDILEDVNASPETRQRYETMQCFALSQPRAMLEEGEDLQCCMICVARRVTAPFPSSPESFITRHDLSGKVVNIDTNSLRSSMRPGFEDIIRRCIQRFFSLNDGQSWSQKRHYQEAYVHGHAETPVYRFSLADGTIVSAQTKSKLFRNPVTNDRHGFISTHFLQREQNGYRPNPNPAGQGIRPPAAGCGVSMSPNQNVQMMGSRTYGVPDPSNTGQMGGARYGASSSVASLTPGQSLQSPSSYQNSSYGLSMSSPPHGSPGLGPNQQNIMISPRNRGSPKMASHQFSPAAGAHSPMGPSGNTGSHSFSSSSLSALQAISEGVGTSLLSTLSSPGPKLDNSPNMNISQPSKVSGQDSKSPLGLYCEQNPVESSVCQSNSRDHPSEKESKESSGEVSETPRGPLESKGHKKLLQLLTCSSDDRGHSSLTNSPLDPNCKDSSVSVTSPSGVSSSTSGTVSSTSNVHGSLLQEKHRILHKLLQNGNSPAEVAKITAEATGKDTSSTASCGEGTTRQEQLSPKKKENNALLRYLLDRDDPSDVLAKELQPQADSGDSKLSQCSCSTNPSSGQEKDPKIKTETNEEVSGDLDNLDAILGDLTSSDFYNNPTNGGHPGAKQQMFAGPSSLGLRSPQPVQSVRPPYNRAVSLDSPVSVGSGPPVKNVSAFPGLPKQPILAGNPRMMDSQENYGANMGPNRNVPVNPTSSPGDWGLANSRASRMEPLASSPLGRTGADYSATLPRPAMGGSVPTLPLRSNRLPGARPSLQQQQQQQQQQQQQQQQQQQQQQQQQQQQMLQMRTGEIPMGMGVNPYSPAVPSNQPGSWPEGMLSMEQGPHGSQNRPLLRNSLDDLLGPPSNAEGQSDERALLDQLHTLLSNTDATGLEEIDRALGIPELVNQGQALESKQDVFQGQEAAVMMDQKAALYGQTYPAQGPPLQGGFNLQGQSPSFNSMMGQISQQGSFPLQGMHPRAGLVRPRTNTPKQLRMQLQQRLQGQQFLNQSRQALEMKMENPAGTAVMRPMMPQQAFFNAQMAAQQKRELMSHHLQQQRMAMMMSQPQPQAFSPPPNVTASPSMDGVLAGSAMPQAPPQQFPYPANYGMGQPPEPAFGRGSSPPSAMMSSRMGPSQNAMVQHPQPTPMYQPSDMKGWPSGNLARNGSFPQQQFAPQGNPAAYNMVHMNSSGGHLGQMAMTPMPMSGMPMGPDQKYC

The entries are a selection whose mix differs from that of the whole data set. Some salts or complexes appear as unconnected parts, following the source record. Activity calls are given as the source filed them.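 How the source made its calls: active means EGFP signal decrease of at least 30% at 10 µM or well 3 SD below plate mean, unless failing retest; inactive means the rest, including hits failing retest or dose response.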

For this assay, the target named is p/CIP-EGFP fusion (nuclear receptor coactivator 3, mouse) (UniProt Q05BA5). As to the kind of experiment: compounds lowering mouse p/CIP (NCOA3) protein levels – fluorescence, F442A cells, EGFP fusion, primary screen (AID 1984). The conditions noted are these: 16 h, at 10 µM, stronger effect = higher value.
Regarding `COc1ccc(OP(C)(=O)Nc2cccc(Br)c2)cc1` (stereo not drawn), the decrease of EGFP signal is inactive: 6.4%.

Consider `CN(C)CCOC(=O)C(O)(c1ccccc1)C1CCCCC1` (stereo not drawn), for which the decrease of EGFP signal was inactive: -3.2%.

Take `COc1ccc(NP(C)(=O)Oc2ccccc2OC)cc1` (stereo not drawn): the decrease of EGFP signal was inactive: -4.2%.

For the compound `O=[N+]([O-])c1ccc(OP2(=O)COCCO2)cc1` (stereo not drawn), the decrease of EGFP signal was inactive: 6.3%.

`O=[N+]([O-])c1cc([N+](=O)[O-])c(NCC2CCS(=O)(=O)C2)c([N+](=O)[O-])c1` (stereo not drawn): the decrease of EGFP signal is inactive: -30.4%.

On to `Cc1cc(-c2cccc3ccccc23)c(C)cn1.O=[N+]([O-])c1cc([N+](=O)[O-])c(O)c([N+](=O)[O-])c1`, for which the decrease of EGFP signal is inactive: -0.4%.

As for `CP(=O)(Nc1ccc(SC(F)(F)F)cc1)Oc1ccc(F)cc1` (stereo not drawn), the decrease of EGFP signal was inactive: 8.4%.

Consider `CCOP(C)(=S)SCC(=O)NC(C)(CC)C(=O)O` (stereo not drawn), for which the decrease of EGFP signal is inactive: -0.9%.

As to `CP(=O)(Nc1ccc2c(c1)OCCO2)Oc1ccccc1` (stereo not drawn), the decrease of EGFP signal was inactive: 7.3%.

Turning to `Cc1ccccc1NP(C)(=O)Nc1ccccc1C`, the decrease of EGFP signal is inactive: -18.4%.

`CP(=O)(Nc1ccccc1F)Oc1ccccc1` (stereo not drawn): the decrease of EGFP signal was inactive: 3.7%.

On to `CC(C)c1ccc(OP(C)(=O)Nc2ccc(SC(F)(F)F)cc2)cc1` (stereo not drawn), for which the decrease of EGFP signal was inactive: -4.2%.

Consider `O=C(OC1CN2CCC1CC2)c1ccc([N+](=O)[O-])cc1` (stereo not drawn), for which the decrease of EGFP signal is inactive: -4.6%.

As for `O=C(OCCN1CCN(CCOCc2ccccc2)CC1)C(O)(c1ccccc1)c1ccccc1`, the decrease of EGFP signal was inactive: 3.4%.

As for `COc1ccc2c(c1O)-c1c(O)c(OC)cc3c1[C@H](C2)[N+](C)(C)CC3.O=[N+]([O-])c1cc([N+](=O)[O-])c([O-])c([N+](=O)[O-])c1[O-]`, the decrease of EGFP signal is inactive: 0.4%.

As for `CCOC(=O)c1ccc(NP(C)(=O)Oc2ccc(F)cc2)cc1` (stereo not drawn), the decrease of EGFP signal was inactive: -34.5%.

Regarding `COc1ccc(OP(C)(=O)Nc2ccc(SC(F)(F)F)cc2)cc1` (stereo not drawn), the decrease of EGFP signal was inactive: 11.5%.

Take `CCN(CC)CCCOC(=O)C(O)(c1ccccc1)C1CCCCC1` (stereo not drawn): the decrease of EGFP signal is inactive: -4.4%.

In the case of `CP(=O)(Nc1ccccc1)Oc1ccc(F)cc1` (stereo not drawn), the decrease of EGFP signal was inactive: 3.2%.

For the compound `O=[N+]([O-])c1cc([N+](=O)[O-])c(OC2CCCCC2O)c([N+](=O)[O-])c1` (stereo not drawn), the decrease of EGFP signal is inactive: -16.2%.

For the compound `CCCCCOc1ccc(NP(C)(=O)Oc2ccc(Cl)cc2Cl)cc1` (stereo not drawn), the decrease of EGFP signal was inactive: 2.7%.

For `Cc1cc(C)cc(OP(C)(=O)Nc2cccc(C(F)(F)F)c2)c1` (stereo not drawn), the decrease of EGFP signal is inactive: -12.5%.

For `COc1ccccc1OP(C)(=O)Nc1ccc(C)c(C)c1` (stereo not drawn), the decrease of EGFP signal was inactive: 3.1%.

Consider `COc1ccc(OP(C)(=O)Nc2ccccc2Br)cc1` (stereo not drawn), for which the decrease of EGFP signal is inactive: -2.9%.

Regarding `Cc1nc2ccc3ccccc3c2o1.O=[N+]([O-])c1cc([N+](=O)[O-])c(O)c([N+](=O)[O-])c1`, the decrease of EGFP signal is inactive: -3.7%.

Consider `CP(=O)(OCCOc1ccccc1)OCCOc1ccccc1`, for which the decrease of EGFP signal is inactive: 1.2%.

For `CP(=O)(Nc1ccc(Cl)cc1Cl)Oc1ccccc1` (stereo not drawn), the decrease of EGFP signal was inactive: 2.5%.

`COc1ccccc1OP(C)(=O)Nc1ccc(Br)cc1` (stereo not drawn): the decrease of EGFP signal is inactive: -10%.

For `COc1ccc(OP(C)(=O)Nc2ccccn2)cc1` (stereo not drawn), the decrease of EGFP signal was inactive: -8.5%.

As for `CN(C)CCOC(=O)C(O)(c1ccccc1)C1CCCC1` (stereo not drawn), the decrease of EGFP signal is inactive: 8.4%.

For `O=[N+]([O-])c1cc([N+](=O)[O-])c(Nc2ccccn2)c([N+](=O)[O-])c1`, the decrease of EGFP signal was inactive: -14.3%.

In the case of `Cc1c(NP(C)(=O)Oc2ccc(C(C)C)cc2)c(=O)n(-c2ccccc2)n1C` (stereo not drawn), the decrease of EGFP signal is inactive: 3.2%.

Regarding `CP(=O)(Nc1ccccn1)Oc1ccccc1` (stereo not drawn), the decrease of EGFP signal was inactive: 4.2%.

`COc1ccccc1OP(C)(=O)Nc1ccc(C)cc1C` (stereo not drawn): the decrease of EGFP signal is inactive: -9.6%.

As to `CCc1ccc(OP(C)(=O)O)cc1`, the decrease of EGFP signal was inactive: -11.2%.

As to `CCN(CC)CC(O)COC(=O)C(O)(c1ccccc1)C1CCCCC1` (stereo not drawn), the decrease of EGFP signal was inactive: -10.4%.

Regarding `COc1ccc(OP(C)(=O)Nc2ccc(Br)cc2)cc1` (stereo not drawn), the decrease of EGFP signal was inactive: 1.4%.

As to `COc1ccccc1OP(C)(=O)Nc1c(C)n(C)n(-c2ccccc2)c1=O` (stereo not drawn), the decrease of EGFP signal was inactive: -5.6%.

As to `O=C(OCCCN1CCCC1)C(O)(c1ccccc1)C1CCCCC1` (stereo not drawn), the decrease of EGFP signal is inactive: -2.1%.

As to `CP(=O)(Oc1ccccc1)N1CCOC1=O` (stereo not drawn), the decrease of EGFP signal was inactive: -0.4%.

For the compound `CCc1ccc(OP(C)(=O)Nc2cccnc2)cc1` (stereo not drawn), the decrease of EGFP signal was inactive: 1.8%.

On to `CC(C)(C)c1ccc(OP(C)(=O)O)cc1`, for which the decrease of EGFP signal was inactive: 6.6%.

Take `COc1ccccc1OP(C)(=O)Nc1ccccc1Br` (stereo not drawn): the decrease of EGFP signal was inactive: 11.6%.

Consider `CP(=O)(Nc1ccc(Cl)cc1)Oc1ccc(F)cc1` (stereo not drawn), for which the decrease of EGFP signal was inactive: -10.8%.

Turning to `CN(C)C(=O)c1c([N+](=O)[O-])cc([N+](=O)[O-])cc1[N+](=O)[O-]`, the decrease of EGFP signal was inactive: 9.9%.

Consider `CCOC(=O)c1ccc(NP(C)(=O)Oc2ccc(Cl)cc2)cc1` (stereo not drawn), for which the decrease of EGFP signal was inactive: 4.7%.

Consider `CP(=O)(OC12CC3CC(CC(C3)C1)C2)OC12CC3CC(CC(C3)C1)C2`, for which the decrease of EGFP signal was inactive: -4%.

As for `CP(=S)(Nn1cnnc1)Oc1ccccc1` (stereo not drawn), the decrease of EGFP signal is inactive: 0.3%.

`CP(=O)(Nc1ccccc1Br)Oc1ccccc1` (stereo not drawn): the decrease of EGFP signal is inactive: -1%.

As for `COc1ccccc1OP(C)(=O)Nc1ccccc1` (stereo not drawn), the decrease of EGFP signal was inactive: 3.9%.

For the compound `CP(=O)(Nc1ccc(SC(F)(F)F)cc1)Oc1ccc(Cl)cc1` (stereo not drawn), the decrease of EGFP signal is inactive: -8.3%.

Consider `Cc1cccc(C)c1OP(C)(=O)Nc1ccc(SC(F)(F)F)cc1` (stereo not drawn), for which the decrease of EGFP signal was inactive: -6.8%.

As to `CP(=O)(Oc1ccccc1)OC(c1ccccc1)C(F)(F)F` (stereo not drawn), the decrease of EGFP signal is inactive: 0.3%.

Regarding `CCc1ccc(OP(C)(=O)N2CCN(c3ccc([N+](=O)[O-])cc3)CC2)cc1` (stereo not drawn), the decrease of EGFP signal is inactive: -7.3%.

`CP(=O)(NC(=O)Nc1ccccc1)Oc1ccccc1` (stereo not drawn): the decrease of EGFP signal was inactive: -6.7%.

As to `Cc1cc(C)cc(OP(C)(=O)Nc2ccc(SC(F)(F)F)cc2)c1` (stereo not drawn), the decrease of EGFP signal was inactive: 1.6%.

As to `CCOC(=O)c1ccc(NP(C)(=O)Oc2ccc(OC)cc2)cc1` (stereo not drawn), the decrease of EGFP signal is inactive: 0%.

Consider `CCOP(C)(=S)SCC(=O)NC(C)C(=O)O` (stereo not drawn), for which the decrease of EGFP signal is inactive: -4.9%.

On to `CP(=O)(Nc1ccccn1)Oc1ccc(Cl)cc1` (stereo not drawn), for which the decrease of EGFP signal was inactive: -15%.

Consider `CCN(CC)CCCOC(=O)C(O)(c1ccccc1)c1ccccc1`, for which the decrease of EGFP signal is inactive: -11.2%.

In the case of `O=[N+]([O-])c1ccc2c(c1)C=Nc1ccccc1O2`, the decrease of EGFP signal was inactive: 2.2%.

Consider `CC(C)(C)c1ccc(OP(C)(=O)Nc2ccc(SC(F)(F)F)cc2)cc1` (stereo not drawn), for which the decrease of EGFP signal is inactive: 7.5%.

Turning to `Cc1cccc(C)c1OP(C)(N)=O` (stereo not drawn), the decrease of EGFP signal was inactive: -1.5%.
